Data as given in paper PMC5099547 (British Journal of Clinical Pharmacology, 2016).
Read-outs that look alike come from different tables or passages of the source.

Sequences of proteins named here, by UniProt entry; tags and fusion partners are left off. Residues count along the entry.
UniProt P00742, 41-179 partner limits assumed: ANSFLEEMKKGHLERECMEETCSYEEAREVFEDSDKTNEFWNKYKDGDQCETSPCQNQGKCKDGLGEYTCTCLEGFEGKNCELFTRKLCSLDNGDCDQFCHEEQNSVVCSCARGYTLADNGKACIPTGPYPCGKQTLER
UniProt P00742, 235-488 limits assumed: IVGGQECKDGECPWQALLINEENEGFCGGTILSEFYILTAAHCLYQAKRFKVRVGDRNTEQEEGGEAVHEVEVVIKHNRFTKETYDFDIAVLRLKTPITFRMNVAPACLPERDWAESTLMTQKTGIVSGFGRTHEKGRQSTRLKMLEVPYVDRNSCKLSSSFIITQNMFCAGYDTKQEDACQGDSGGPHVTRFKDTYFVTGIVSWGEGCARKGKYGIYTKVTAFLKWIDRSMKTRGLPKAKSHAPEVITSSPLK

What was measured:
[1] = target: intrinsic factor X activity (Homo sapiens, UniProt P00742)
intrinsic FXa activity = intrinsic FXa activity (Homo sapiens, UniProt P00742)

CN1CCc2nc(C(=O)N[C@@H]3C[C@@H](C(=O)N(C)C)CC[C@@H]3NC(=O)C(=O)Nc3ccc(Cl)cn3)sc2C1 [Edoxaban]
mean value of intrinsic FX inhibition ([1]; edoxaban 60 mg + ketoconazole): 109.4% | mean value of intrinsic FX inhibition ([1]; ketoconazole study, edoxaban 60 mg alone): 101.3% | percent mean maximum change in intrinsic FXa values from baseline (intrinsic FXa activity; cyclosporine study, edoxaban 60 mg alone): −64.3% | percent mean maximum change in intrinsic FXa values from baseline (intrinsic FXa activity; edoxaban 60 mg + cyclosporine 500 mg): −81.8% | increase in inhibitory activity (intrinsic FXa) (intrinsic FXa activity; edoxaban + cyclosporine vs edoxaban alone): approximately 1.3 fold
